Sequences of proteins named here, by UniProt entry; tags and fusion partners are left off.
UniProt P11309, whole entry: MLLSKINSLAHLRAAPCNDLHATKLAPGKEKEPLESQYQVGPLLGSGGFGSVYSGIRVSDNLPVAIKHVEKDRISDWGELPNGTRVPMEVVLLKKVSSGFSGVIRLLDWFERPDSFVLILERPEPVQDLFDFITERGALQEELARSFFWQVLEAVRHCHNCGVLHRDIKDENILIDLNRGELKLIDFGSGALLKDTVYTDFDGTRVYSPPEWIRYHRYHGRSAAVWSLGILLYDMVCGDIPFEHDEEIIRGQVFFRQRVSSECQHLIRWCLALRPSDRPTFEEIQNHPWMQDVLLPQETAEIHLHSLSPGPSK

According to patent publication US9187486B2 (AMGEN INC., priority 2011, dated 2015):

Target: Pim-1 (Homo sapiens (Human), UniProt P11309)
Assay: Pim enzyme assay (HTRF, phosphorylation of biotinylated-BAD (S112) peptide), Pim-1
Type: biochemical
Settings: full length recombinant Pim-1, biotinylated-BAD (S112) peptide, 96-well, read-out: Pim-1 IC50 IP
Description: Full-length human cDNAs encoding Pim-1 (MGC ID 3913552) or Pim-2 (IMAGE ID 5092935) were purchased from Invitrogen, Carlsbad, Calif. These cDNAs were used as templates in PCR reactions to produce full-length DNA clones of the PIMs. Oligonucleotide PCR primers for Pim-1 were 5′-[…]-3′ and 5′-[…]-3′. Oligonucleotide PCR primers for Pim-2 were 5′-[…]-3′ and 5′-[…]-3′. PCR products were digested with BclI and EcoRI for Pim-1 and BamHI and EcoRI for Pim-2 and ligated into a modified baculovirus transfer vector (pFastBac 1) cleaved with BamHI and EcoRI. […]
The frozen cell pellets were thawed by stirring in chilled lysis buffer (0.05 M HEPES, pH 8.0, 0.25 M NaCl, 0.01 M 2-mercaptoethanol, 10% (w/v) glycerol, 0.5% (v/v) protease inhibitor cocktail (Sigma P-8340) at a ratio of 1 L/200 g cells until homogeneous. The thawed suspension was applied to a microfluidizer at 10,000 PSI to disrupt the cells and the whole lysates were clarified by centrifugation at 50,000×g for 90 min, 4° C. Imidazole was added to the clarified lysate to a final concentration of 2.5 mM and the lysate was mixed with 10 mL of Talon resin (Clontech) and the slurry rocked gently overnight at 4° C. […] Fractions were analyzed by SDS-PAGE and those containing the protein of interest were pooled and concentrated. […]

IC50 | Compound
2.4 nM | N[C@@H]1C=C(c2ccncc2Nc2ncc3ccc(-c4c(F)cccc4F)nn23)CC[C@H]1F (racemic) [Example 93, (2,2,2-trifluoroacetate)]
7.4 nM | N[C@@H]1CN(c2ccncc2Nc2ncc3ccc(-c4c(F)cccc4F)nn23)CC[C@H]1F (single isomer, unassigned) [Example 44, N-(4-(trans-3-amino-4-fluoropiperidin-1-yl)pyridin-3-yl)-2-(2,6-difluorophenyl)imidazo[1,5-b]pyridazin-7-amine]
